Measurements: IntAct's records for PubMed 20363749

B1: Pentraxin-related protein PTX3 (Homo sapiens), P26022 (parent)
chain: MHLLAILFCALWSAVLAENSDDYDLMYVNLDNEIDNGLHPTEDPTPCACGQEHSEWDKLFIMLENSQMRERMLLQATDDVLRGELQRLREELGRLAESLARPCAPGAPAEARLTSALDELLQATRDAGRRLARMEGAEAQRPEEAGRALAAVLEELRQTRADLHAVQGWAARSWLPAGCETAILFPMRSKKIFGSVHPVRPMRLESFSACIWVKATDVLNKTILFSYGTKRNPYEIQLYLSYQSIVFVVGGEENKLVAEAMVSLGRWTHLCGTWNSEEGLTSLWVNGELAATTVEMATGHIVPEGGILQIGQEKNGCCVGGGFDETLAFSGRLTGFNIWDSVLSNEEIRETGGAESCHIRGNIVGWGVTEIQPHGGAQYVS

Variants of: B1
Details: with fgf2_human FGF2, P09038

| effect of a mutation on the interaction | Variant |
| --- | --- |
| decreasing interaction strength | MHLLAILFCALWSAVLAENSDDYDLMYVNLDNEIDNGLHPTEDPTPCACGQEHSEWDKLFIMLENSQMRERMLLQATDDVLRGELQRLREELGRLAESLARPSAPGAPAEARLTSALDELLQATRDAGRRLARMEGAEAQRPEEAGRALAAVLEELRQTRADLHAVQGWAARSWLPAGCETAILFPMRSKKIFGSVHPVRPMRLESFSACIWVKATDVLNKTILFSYGTKRNPYEIQLYLSYQSIVFVVGGEENKLVAEAMVSLGRWTHLCGTWNSEEGLTSLWVNGELAATTVEMATGHIVPEGGILQIGQEKNGCCVGGGFDETLAFSGRLTGFNIWDSVLSNEEIRETGGAESCHIRGNIVGWGVTEIQPHGGAQYVS [C103S] |
| disrupting interaction strength | MHLLAILFCALWSAVLAENSDDYDLMYVNLDNEIDNGLHPTEDPTPSASGQEHSEWDKLFIMLENSQMRERMLLQATDDVLRGELQRLREELGRLAESLARPSAPGAPAEARLTSALDELLQATRDAGRRLARMEGAEAQRPEEAGRALAAVLEELRQTRADLHAVQGWAARSWLPAGCETAILFPMRSKKIFGSVHPVRPMRLESFSACIWVKATDVLNKTILFSYGTKRNPYEIQLYLSYQSIVFVVGGEENKLVAEAMVSLGRWTHLCGTWNSEEGLTSLWVNGELAATTVEMATGHIVPEGGILQIGQEKNGCCVGGGFDETLAFSGRLTGFNIWDSVLSNEEIRETGGAESCHIRGNIVGWGVTEIQPHGGAQYVS [C47S;C49S;C103S] |
